Test: Human Equivalent Dose (HED) calculation based on body surface area
Details: for HED: Mouse Km=3, Human Km=37; for Animal NOAEL: mouse (~20 g)
Source text: Provided herein are methods for calculating HED of the MBTA components based on body surface area.
See details from: Nair A B, Jacob S. A simple practice guide for dose conversion between animals and human. J Basic Clin Pharma 2016; 7:27-31
A formula to calculate HED is shown as follows:
HED(mg/kg)=Animal dose(mg/kg)Animal Km/Human Km

Lipoteichoic acid [LTA]
HED/Safety Factor (10): 0.00973 mg/kg | Maximum Recommended Starting Dose (MRSD, assuming 60 kg adult): 0.5838 mg/day | HED: 0.0973 mg/kg

Oleyl-O-poly(ethylene glycol)-succinyl-N-hydroxy-succinimidyl esters [BAM]
HED/Safety Factor (10): 0.03973 mg/kg | Maximum Recommended Starting Dose (MRSD, assuming 60 kg adult): 2.384 mg/day | HED: 0.3973 mg/kg | Animal NOAEL: 4.9 mg/kg

Polyinosinic:polycytidylic acid [Poly I:C]
HED/Safety Factor (10): 0.00973 mg/kg | Maximum Recommended Starting Dose (MRSD, assuming 60 kg adult): 0.5838 mg/day | HED: 0.0973 mg/kg | Animal NOAEL: 1.2 mg/kg

— patent US20230054318A1, “PERSONALIZED TUMOR VACCINE AND USE THEREOF FOR CANCER IMMUNOTHERAPY” (priority 2019, published 2023)
